The values that follow are results of earlier work, collected in patent publication US20090035385A1, “COMPOSITIONS INCLUDING IRON” (DRUGTECH CORPORATION, priority 2004, published 2009).

The conditions of this series: cited from earlier work.

Like-named read-outs stand apart in the source and are kept apart here.

Turning to ferrous sulfate, the “average iron absorption rate” value (days 21 through 30 of daily iron supplementation, published data) is given as 5.1% and the “average iron absorption rate” value (iron supplementation days 1 through 20, conventionally accepted) is listed as 15%.
